# Antibody variant affinities, Ab-95 light chain, assay 2

Data: MIT Lincoln Laboratory AlphaSeq set, Engelhart et al. 2022, doi:10.1038/s41597-022-01779-4, as distributed in FLAb.

The target is the same throughout: PDVDLGDISGINAS, from the HR2 region of SARS-CoV-2 spike.

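Phage display of a naive human antibody library on the peptide gave the parent. Library AAYL52 holds single substitutions and randomly drawn double and triple substitutions in the CDRs. The scFvs were displayed on barcoded MATa yeast, the peptide on MATalpha yeast. After mating in shaken culture at 30 °C for 16 h, diploids were selected and their barcode pairs sequenced. Scores were corrected for input abundance and mapped to Kd with protein pairs of known affinity run in the same pool. There are three technical replicates.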

The variants keep the heavy chain, the linker and the frameworks of Ab-95 (scFv order VH, three GGGGS repeats, VL).
VH: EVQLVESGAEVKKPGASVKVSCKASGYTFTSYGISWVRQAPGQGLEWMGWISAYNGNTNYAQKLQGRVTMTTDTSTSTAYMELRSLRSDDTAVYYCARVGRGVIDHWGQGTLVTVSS
VL: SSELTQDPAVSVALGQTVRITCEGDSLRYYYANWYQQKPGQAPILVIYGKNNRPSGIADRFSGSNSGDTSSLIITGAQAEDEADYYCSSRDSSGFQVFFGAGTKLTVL

Substitutions are numbered in sequence along the VL above, starting at 1 (not Kabat).
Scale: log10 of Kd in nM, estimated from mating counts; low values are strong binders.
A mean of the replicates is given; it leaves out those without a signal.
Where no diploid with the target was found in any replicate, the entry reads "not detected": below detection, most likely a poor binder, though not proof of it.
Empty control strains, which show no peptide, gave a signal in 28% of pairings with library AAYL52; the median was 3.91 and 95% of these signals were weaker than 2.90. No background was subtracted. Also given: how often the same scFv was detected with the empty control strains.

changes,mean log10 Kd (nM),detected,empty controls
S26L+L27Q+R53I,4.64,3/3,3/9
R53Q+S55H+G94R,not detected,0/3,2/9
A32Q+S92W+F98W,4.53,1/3,2/9
E23C+R28W+A32W,not detected,0/3,0/9
D25S+R28I+R53H,3.32,2/3,1/9
Y31P+S89C+F95N,1.48,3/3,2/9
D25H+S89G+Q96C,3.70,2/3,5/9
R53C+S88P+D91I,4.02,3/3,3/9
D25Y+S93A+F95C,2.92,3/3,2/9
E23T+R53V+S89A,2.35,3/3,1/9
Y30F+P54R+F98W,3.35,2/3,0/9
G24D+Y30A+K50P,2.98,3/3,1/9
L27V+S92M+Q96Y,4.69,1/3,2/9
Y31A+N33W+K50D,not detected,0/3,5/9
N51Y+R53I+S93P,not detected,0/3,7/9
G49K+S55Q+S88V,3.90,2/3,3/9
D25N+P54L+D91E,4.74,1/3,3/9
E23G+Y29V+G94A,2.53,3/3,5/9
G24R+R28Q+K50N,1.85,3/3,1/9
S55V+Q96C,2.37,3/3,3/9
Y31E+S93V+Q96G,2.40,3/3,3/9
Y31K+R53D+Q96N,2.52,3/3,2/9
S26D+R53H+S88Q,4.58,2/3,2/9
N51D+V97I+F98G,2.68,3/3,3/9
N33G+S55C,5.41,1/3,1/9
N33I+S93G+Q96H,3.67,1/3,1/9
Y29H+G49E+R90G,3.84,2/3,4/9
G24V+L27K+S88M,1.68,3/3,0/9
E23G+S89N+V97C,3.45,1/3,2/9
D25R+G94C+F95T,3.99,3/3,3/9
D25C+Y29L+R90D,not detected,0/3,2/9
A32E+D91I+S93Q,not detected,0/3,3/9
S55Y+S92K,2.59,3/3,1/9
P54W+G94N+F98A,3.66,2/3,1/9
E23S+S89W+R90V,2.80,3/3,3/9
G24P+R28N+G94Y,4.20,1/3,0/9
E23N+S88V+G94Y,3.12,3/3,3/9
S26Q+Y30F+R53Q,not detected,0/3,3/9
G24T+Y30V+K50Y,5.39,2/3,5/9
Y31H+S92Y+Q96K,2.46,3/3,0/9
S26P+R53H+R90A,4.69,2/3,4/9
E23H+P54N+F95N,2.41,3/3,0/9
A32F+R53A+P54Q,4.15,2/3,1/9
R28I+Y31L+K50L,3.32,2/3,5/9
Y30M+F95C,4.02,3/3,4/9
S26F+Y30F+R53K,not detected,0/3,2/9
A32L+G94Y+F98A,3.59,1/3,6/9
K50C+N51G+V97S,3.41,1/3,2/9
Y29H+S55I+D91Y,1.80,3/3,0/9
R28N+Y31I+G94A,3.83,2/3,0/9
G49E+Q96F+F98K,3.72,3/3,3/9
A32D+S93N,5.54,1/3,2/9
Q96A+V97L+F98E,2.61,3/3,1/9
L27T+F95L,3.55,2/3,0/9
G24S+G94C+Q96S,3.24,3/3,3/9
G24C+D25A+G49R,4.36,3/3,3/9
S93W+G94T+Q96A,not detected,0/3,3/9
R53C+S55H+F98H,3.73,3/3,6/9
Y29G+P54T+S92D,2.88,3/3,4/9
K50E+Q96P,2.44,3/3,2/9
Y30V+G49E+S93M,3.55,3/3,4/9
S26M+L27W+S92T,not detected,0/3,0/9
Y30N+S89Y+V97S,4.08,1/3,2/9
E23F+R28Y+R90C,3.75,3/3,5/9
D25T+S88N+S92R,2.00,3/3,0/9
K50E+N51K+S55R,2.99,3/3,2/9
Y30H+N33P+K50H,4.45,2/3,2/9
S88N+S92E+G94V,3.00,3/3,4/9
Y30P+R53I+V97M,4.71,2/3,2/9